ABCB6 inh 2: human ABCB6 transporter inhibition | Q9NP58 | K562-ABCB6 porphyrin accumulation, flow cytometry, 1 h; stronger effect = lower value | fluorescence ratio to DMSO, % at 10 µM | actives 0.19% (n = 360,000) | AID 602162;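 active = fluorescence ratio to DMSO below 75%, the collection mean minus 3 SD; inconclusive = too few cells collected in the well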;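 note: signal is porphyrin accumulated inside mitochondria; 100% equals median channel fluorescence of DMSO control wells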
p-CIP stab down: lowers stability of the mouse p/CIP coactivator protein. actives 0.01% (n = 290,000). decrease of EGFP signal, % at 10 µM. F442A p/CIP-EGFP cells, EGFP fluorescence, 16 h;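 active = EGFP signal decrease of at least 30% at 10 µM or well 3 SD below plate mean, unless failing retest; inactive = the rest, including hits failing retest or dose response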
PKA-R1A act: activates the PKA-R1A holoenzyme complex; P00514+P68181; PKA-R1A dissociation, Cy5-IP20 fluorescence polarization; scaled: DMSO 0%, 113 µM cGMP 100%; activation, % at 11.4 µM; actives 0.083% (n = 340,000); AID 504707;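 active = percent activation above the mean of all tested compounds plus 3 SD, cut at about 19% in these data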;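 note: higher means more PKAc released from R1A so a rise in polarization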
PKA-R2B activ: PKA-R2B complex activation | activation, % at 11.4 µM | actives 0.079% (n = 340,000) | PKA-R2B holoenzyme dissociation, Cy5-IP20 fluorescence polarization; R2B truncated from residue 108, S112A mutant; 0% DMSO only, 100% 113 µM cGMP | P22694+P31323;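 active = activation above a cutoff set at the mean over all compounds plus 3 SD, cut at about 18% in these data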;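 note: higher means more holoenzyme dissociation and a rise in polarization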
Exocytosis inh: blocks lytic granule exocytosis; inhibition, % at 10 µM; TALL-104 LAMP-1 surface exposure, flow cytometry; cells stimulated with thapsigargin and PMA; actives 0.66% (n = 360,000);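 active = inhibition above about 55%, limit read from the data; inconclusive = no clear call, values can overlap the other calls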
Yeast UUG start: modulators of start codon recognition fidelity in yeast. S. cerevisiae UUG-firefly luciferase reporter, luminescence/redox ratio. activity score, % at 18.7 µM. 0.13% of 350,000 active. AID 602363;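 active = replicate mean at a twofold rise or more, about +100% in these data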;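 also: firefly luciferase made from a UUG start codon reports start codon fidelity; reporter light over untreated wells divided by growth signal over untreated wells; some hits fall short of that in this replicate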
ABCB6 blocker 1: human ABCB6 transporter inhibition; shares compounds with ABCB6 inh 2; K562-ABCB6 porphyrin accumulation, flow cytometry, 1 h; stronger effect = lower value; ratio response (% of DMSO), % at 10 µM; 700 tested, under 10 active; AID 602430;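 active = repeat-averaged ratio response below 75% of DMSO, the collection mean minus 3 SD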;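 note: median porphyrin fluorescence at 575 nm with 488 nm excitation from mitochondria; lower ratio means less porphyrin signal so ABCB6 inhibition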
K562 vector FC: counter-screen for ABCB6 inhibitors: effect in vector-only K562 cells | shares compounds with ABCB6 inh 2 | K562 empty-vector cells, flow cytometry fluorescence, 1 h | percent response (fluorescence), % at 100 µM | 25 tested, under 10 active;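 active = compounds whose half-maximal effective concentration is below 100 µM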
Active calls of the source: *; ? = inconclusive; / = not tested or not shown. The list is not random: actives were taken first. Their share in the collection is about 0.94%.

SMILES	ABCB6 inh 2	p-CIP stab down	PKA-R1A act	PKA-R2B activ	Exocytosis inh	Yeast UUG start	ABCB6 blocker 1	others
CCc1nnc(NC(=O)c2nc(S(=O)(=O)Cc3cccc(C)c3)ncc2Cl)s1	108	-9	-12	-1	?	-22	/	K562 vector FC=220
Cc1ccc(CS(=O)(=O)c2ncc(Cl)c(C(=O)Nc3ccc(OC(F)F)cc3)n2)cc1	62*	-14	0	-10	35	-17	/	K562 vector FC=310
CSc1nnc(NC(=O)c2nc(S(=O)(=O)Cc3cccc(C)c3)ncc2Cl)s1	106	-31	3	-4	6	-14	/
CCS(=O)(=O)c1ncc(Cl)c(C(=O)Nc2ccc(C)cc2)n1	77	-11	-14	-5	-21	-23	/
Cc1cccc(CS(=O)(=O)c2ncc(Cl)c(C(=O)Nc3nnc(C(C)C)s3)n2)c1	103	-33	-10	-7	21	-10	/	K562 vector FC=241
CC(=O)Nc1ccc(NC(=O)c2nc(S(=O)(=O)Cc3ccccc3)ncc2Cl)cc1	70*	-17	-4	-14	?	7	/	K562 vector FC=280
Cc1noc(C)c1S(=O)(=O)Nc1ccc2c(c1)C(=O)N([C@H](C)CO)C[C@H](C)[C@@H](CN(C)Cc1ccc(C(F)(F)F)cc1)O2	/	/	/	/	/	-3	/
CCSc1nnc(NC(=O)c2nc(S(=O)(=O)Cc3ccc(F)cc3)ncc2Cl)s1	85	-27	-12	1	5	-11	/
CCc1nnc(NC(=O)c2nc(S(=O)(=O)Cc3ccccc3)ncc2Cl)s1	84	-23	2	-10	10	-12	/	K562 vector FC=244
CCCOc1ccc(C(CC(=O)O)NC(=O)c2ccc3c(c2)OCO3)cc1 (stereo not drawn)	57*	9	-7	-9	1	-5	101
O=C(CCCn1cnc([N+](=O)[O-])n1)Nc1cccc(Cl)c1Cl	72*	-10	-7	-13	-2	/	104
Cc1c(Cl)cccc1NC(=O)CCCn1cnc([N+](=O)[O-])n1	101	13	1	-8	1	-2	/
O=S(=O)(c1ccc2nc(-c3ccccc3)[nH]c2c1)N1CCN(c2cccc(Cl)c2)CC1	58*	11	-9	-2	-4	/	101
COc1ccccc1N1CCN(S(=O)(=O)c2ccc3nc(-c4ccccc4)[nH]c3c2)CC1	101	-5	-10	6	-6	/	/
CCOC(=O)c1c(NC(=O)c2ccc(N3C(=O)[C@@H]4[C@H](C3=O)[C@H]3C=C[C@@H]4C3)cc2)sc2c1CC(C)CC2 (stereo partly drawn)	68*	3	-6	-5	2	/	96
CCOc1ccc(C(C(=O)NCC2CCCO2)N(Cc2cccnc2)C(=O)c2snc(C(N)=O)c2N)cc1 (stereo not drawn)	74*	-9	1	0	6	-5	102
CCC(=O)N(C)C[C@@H]1Oc2ncc(-c3ccc(C(=O)N(C)C)cc3)cc2C(=O)N([C@H](C)CO)C[C@H]1C	/	/	/	/	/	8	/
CC(C)c1cn(CC[C@@H]2CC[C@H](NC(=O)c3cccc(F)c3)[C@@H](CO)O2)nn1	/	/	/	/	/	0	/
O=c1c(-c2ccccc2)c(O)cc(-c2ccncc2)n1-c1ccc(Cl)cc1	64*	2	0	3	-1	-11	102
C/C(=N\O)c1c(O)cc(-c2ccccc2)n(-c2ccccc2)c1=O	99	-4	/	/	2	-7	/
O=C(Nc1nnc(-c2ccccc2)o1)c1cc(Cl)sc1Cl	69*	-3	-6	2	9	/	98
O=C(Nc1nnc(-c2ccc(F)cc2)o1)c1cc(Cl)sc1Cl	100	-9	3	-9	1	/	/
CC(C)C#Cc1cnc2c(c1)C(=O)N([C@H](C)CO)C[C@H](C)[C@H](CN(C)C(=O)Nc1ccccc1F)O2	/	/	/	/	/	5	/
CSc1ccc(CN2C(=O)C(F)(F)Oc3c(C(C)=O)cccc32)cc1	74*	/	/	/	-28	1	101

Source: PubChem (several laboratories)
